scFv variants of Ab-14 (heavy chain) against a SARS-CoV-2 spike peptide

The target is the same throughout: PDVDLGDISGINAS, from the HR2 region of SARS-CoV-2 spike.

Ab-14 is the parent antibody, in scFv form: VH, then a (GGGGS)3 linker, then VL. The light chain is unchanged in all variants.
VH: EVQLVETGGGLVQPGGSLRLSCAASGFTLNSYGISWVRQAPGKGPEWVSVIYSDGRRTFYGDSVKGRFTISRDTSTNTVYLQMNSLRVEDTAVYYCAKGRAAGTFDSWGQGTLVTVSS
VL: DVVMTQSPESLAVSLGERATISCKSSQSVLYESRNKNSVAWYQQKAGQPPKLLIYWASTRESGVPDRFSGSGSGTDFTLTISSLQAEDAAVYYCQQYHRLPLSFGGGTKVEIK

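The parent was found by panning a naive human phage display library on the peptide. This is the validation round: designs drawn from the data on random variants, tested in the same kind of assay. Several design methods are mixed in this list. The assay is AlphaSeq: two haploid yeast populations carry antibody and antigen on their surface. Binding brings cells together so that they mate, and sequencing counts the barcode pairs among the diploids. Read counts were normalised to the haploid input and turned into Kd by a linear fit to BCL2-family pairs of known affinity, for each replicate. There are six technical replicates.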

Each variant is given by its three heavy chain CDRs, as the data file delimits them; those of the parent are GFTLNSYGIS, VIYSDGRRTFYGDSVK, GRAAGTFDS. Each Kd is an estimate from the mating assay, the geometric mean of the replicates in which the pair was seen; lower is stronger. Where no diploid with the target was found in any replicate, the entry reads "no signal": below detection, most likely a poor binder, though not proof of it. The range of this assay differs from that of the first round, and the authors advise against merging the two. Background: pairings of all heavy chain designs with three empty control strains gave a value in 1% of cases (median 120 nM, 5th percentile 7.0 nM). Values in that range, when seen in few replicates, are hard to tell from nonspecific mating. Of ten entries with the parent sequence, four were seen in most replicates (averages 2.2 nM to 240 nM), three in one and three in none, so single entries are noisy. The authors' rule: three or more of the six replicates give a measured affinity, fewer mean a poor binder.

CDR-H1,CDR-H2,CDR-H3,Kd (apparent),seen in
GFTLDSYGIS,VIYCDGRRTFYGDSVK,GRAAGTALS,380 nM,1 of 6
GFDLNEYGIS,VIYADGRRTFYTDSVK,GNNAGTFDV,230 pM,6 of 6
GETLNSYGIS,VIYSDGRRTFYGDSVS,GRAAGTFDS,240 nM,1 of 6
GFDLNSYGIS,VIYSDGRRTFYGDAVK,GQTAGTFDS,1.5 nM,6 of 6
GFDLNEYGIS,VIYADGLRTFYTDSVK,GEFAGTFDM,130 pM,6 of 6
GFDLNEYGIS,VIYADGRRTFYADKVK,GVNAGTFDS,510 pM,6 of 6
GFTLNSYGIS,VIYSDGRRTFYADSVK,GQAAGTFDT,1.3 nM,6 of 6
GFDLNEYGIS,VIYADGRRTFYADSVK,GNTAGTFDL,160 pM,6 of 6
GFGLNQYGIS,VIYSDGRRTFYSDSVK,GRQAGTFDS,810 pM,6 of 6
GFDLNEYGIS,VIYADGMRTFYADSVK,GQLAGTFSV,340 pM,6 of 6
GFDIDEYGIS,VIYADGQRTAYKPKVK,GNNTGLVFI,no signal,0 of 6
GFQLNSYGIS,VIYADGRRTFYGDSVK,GRAAGTNDS,no signal,0 of 6
GFELNSYGIS,VIYSDGRRTFYIDSVK,GKAAGTFDK,14 nM,4 of 6
GADINEYGIS,VIYADGRSTYYQNSFK,GHNAGTFNM,700 nM,2 of 6
GFDLDEYGIS,VIYADGQRFAYAQEFK,GEAGGAFDL,no signal,0 of 6
GFDVDEYGIS,VIYADGKRSMYANKVK,GHIGGMMFV,no signal,0 of 6
GFSLDEYGIS,VIYADGRRTFYADSVK,GNVAGTFDL,25 pM,6 of 6
GFTLNSYGIS,VIYSDGRRTFYSDSVK,GQAGGTFDS,33 nM,6 of 6
GFDLNEYGIS,VIYADGRRTFYSDSVK,GQLAGTFDS,410 pM,6 of 6
GFTLDSYGIS,VIYSDGRRTFYIDDVK,GKAAGTFDS,2.2 nM,6 of 6
GFNLDEYGIS,VIYADGRRTFYTDSVK,GEGAGTFDF,16 nM,6 of 6
GFDLDEYGIS,VIYADGARSFYTNKVK,GVTVGDNGT,no signal,0 of 6
GDDLAEYGVS,VIYADGKRTKYSDHVK,GEVGGFFDA,no signal,0 of 6
GFDLNEYGIS,VIYADGRRTFYDDSVK,GNAAGTFDQ,450 pM,6 of 6
GFSLNSYGIS,VIYSDGRRTFYADSVK,GRTAGTFDQ,1.6 nM,6 of 6
GFDLNEYGIS,VIYADGMRTAYSDSVK,GQNAGTFDV,310 pM,6 of 6
GFALNSYGIS,VIYSDGRRTFYIDSVK,GNAAGTFDS,7.7 nM,6 of 6
GFSLNSYGIS,VIYSDGRRTFYSDRVK,GITAGTFDS,1.2 nM,6 of 6
GMKLQDYGIS,VIYADGVRTAFKESVK,GQIAGTFNF,56 nM,2 of 6
GFDLNEYGIS,VIYADGRRTFYADSVK,GNNAGTFDV,72 pM,6 of 6
GFTLNDYGID,VIYQDGRMTQYIDSVK,GRAAGTFDS,42 nM,2 of 6
GFDLNEYGIS,VIYADGRRTAYVDSVK,GVNAGTFDS,230 pM,6 of 6
GFDLDEYGIS,VIYADGRRTAYSDSVK,GSNAGTFDV,60 pM,6 of 6
GFTLNSYGIS,VIYSDGRRTFYGDSVK,GRACGTFDS,no signal,0 of 6
GFDLDEYGIS,VIYADGKRTAYSDSVK,GANAGTFDV,380 pM,6 of 6
GETLNSYGIS,VIYSDGERTMYGDSVK,GRAAGTFDS,200 nM,2 of 6
GFTLKSYGIS,VIYADGRRTFYGDSVK,GEAAGTFDS,670 pM,6 of 6
GFDLNEYGIS,VIYADGRRTAYADDVK,GKNAGTFDV,82 pM,6 of 6
GFDLNEYGIS,VIYADGTRTAYADSVK,GNNAGTFDV,510 pM,6 of 6
KFTLNSYGIS,VIYSDGRRTAYGDSVK,GRAAGTFDL,250 nM,1 of 6
GFDLNSYGIS,VIYSDGRTTFYGKSVK,YRAAGWFNS,no signal,0 of 6
GFDLNEYGIS,VIYADGQRTFYTDSVK,GEVAGTFDV,340 pM,6 of 6
GFDLNSYGIS,VIYSDGRRTFHGDSVK,GRAAGTFDS,no signal,0 of 6
GFDLDEYGIS,VIYADGLRTAYADSVK,GNNAGTFDV,220 pM,6 of 6
GFELNAYGIS,VIYSDGRRTFYGDSVK,GQTAGTFDS,6.9 nM,6 of 6
KFTLNSYGIS,VIYSDGRRTFYSDSVK,GKEAGTFDS,3.8 nM,6 of 6
GFTLNEYGIS,VIYSDGRRTFYSDSVK,GQLAGTFDS,600 pM,6 of 6
GFDLNEYGIS,VIYADGSRKAYADSVK,GEVAGTFDV,540 pM,6 of 6
GFSINEYGIS,VIYADGLRQFYTNAVK,GMAAVTFDQ,no signal,0 of 6
GFDLNEYGIS,VIYADGFRTFYSDSVK,GEVAGTFDS,130 nM,3 of 6
GFELNSYGIS,VIYSDGRRTFYGDSVK,GRTAGTFDQ,15 nM,6 of 6
GFDLNEYGIS,VIYADGRRTFYSDSVK,GKAAGTFDQ,250 pM,6 of 6
GFDLNSYGIS,VIYSDGRRTFYHDSVK,GRAAGTFNS,12 nM,1 of 6
GESLDEYGIS,VIYADGVRSQYTDQVK,GVETGAVLD,43 nM,5 of 6
GFTLNQYGIS,VIYSDGRRTFYGDSVK,GRNAGTFDS,4.3 nM,5 of 6
GFTLNQYGIS,VIYSDGRRTFYGDEVK,GRAAGTFDS,45 nM,5 of 6
GFTLNESGIQ,VIYSDRRRTFYTDSVK,GRFAGTFDK,no signal,0 of 6
GFTLNDYGIS,VIYSDGRRTFYGDSVK,GRCAGTFDK,550 pM,1 of 6
GFSLNSYGIS,VIYSDGRRTFYGDSVK,GKEAGTFDS,900 pM,6 of 6
GFTLNSYGIS,VIYSDGRRTFYSDSVK,GQLAGTFDT,1.3 nM,6 of 6
MFDLNSYGIS,VIYSDGRRTFYGDSVK,GREAGTFDT,1.4 nM,4 of 6
GFALNEYGIS,VIYSDGRRTFYGDSVK,GKAAGTFDS,3.7 nM,6 of 6
GFGLMEYGIS,VIYADGMRTSYSNSVK,GALAGTFDE,740 pM,6 of 6
GFHLDEFGIS,VIYADGSRSSYADDVK,GEGVNGFVV,no signal,0 of 6
KFSLNWYGIS,VIYSDGRRTFYIDSVK,GRTAGTFDS,no signal,0 of 6
GFHLNSYGIS,VIYSDGRRTFYGDSVK,GREAGTFDS,19 nM,5 of 6
GFALDEYGIS,VIYADGSRTVYAGDVK,GMLGVNFDM,no signal,0 of 6
GVGRNMYGIS,VIYSDGRRTFYGDSVK,GRAAGTFDS,no signal,0 of 6

Source: Li et al. 2023 (doi:10.1038/s41467-023-39022-2), MIT Lincoln Laboratory and A-Alpha Bio; data file from the FLAb repository.